Values of other authors as cited in patent US10350231B2, “Use of cladribine for treating autoimmune inflammatory disease” (Chord Therapeutics S.a.r.l., priority 2014, dated 2019).

System: NMO patients
Conditions: cited from earlier work

B1: interferon beta: cytokine interferon beta, marketed therapy for relapsing MS (protein, UniProt P01574 22-187, looked up)
Interferon beta: MSYNLLGFLQRSSNFQCQKLLWQLNGRLEYCLKDRMNFDIPEEIKQLQQFQKEDAALTIYEMLQNIFAIFRQDSSSTGWNETIVENLLANVYHQINHLKTVLEEKLEKEDFTRGKLMSSLHLKRYYGRILHYLKAKEYSHCAWTIVRVEILRNFYFINRLTGYLRN
effect on NMO: exacerbate NMO
